Patent publication US9694016B2 (Novartis AG, priority 2013, dated 2017)

Protein sequences, listed by entry. Tags and fused reporters are not part of them.
UniProt P04049, whole entry Y340E/Y341E: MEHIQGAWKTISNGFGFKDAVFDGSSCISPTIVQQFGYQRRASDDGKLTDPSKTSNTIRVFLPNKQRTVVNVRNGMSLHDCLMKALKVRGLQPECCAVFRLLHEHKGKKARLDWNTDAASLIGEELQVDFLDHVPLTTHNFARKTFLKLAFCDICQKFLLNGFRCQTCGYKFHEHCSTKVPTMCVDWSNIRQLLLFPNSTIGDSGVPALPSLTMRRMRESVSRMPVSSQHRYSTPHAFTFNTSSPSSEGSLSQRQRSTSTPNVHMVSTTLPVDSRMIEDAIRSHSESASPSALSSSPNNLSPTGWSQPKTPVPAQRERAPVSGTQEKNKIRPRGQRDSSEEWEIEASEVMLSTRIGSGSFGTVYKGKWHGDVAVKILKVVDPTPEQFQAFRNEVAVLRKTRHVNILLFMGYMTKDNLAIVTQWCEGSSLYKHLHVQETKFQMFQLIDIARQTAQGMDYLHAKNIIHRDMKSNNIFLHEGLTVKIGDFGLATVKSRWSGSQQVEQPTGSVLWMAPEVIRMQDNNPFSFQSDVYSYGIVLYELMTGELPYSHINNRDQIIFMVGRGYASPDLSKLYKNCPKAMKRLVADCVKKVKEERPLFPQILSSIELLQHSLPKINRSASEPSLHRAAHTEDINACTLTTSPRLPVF

Target: C-Raf FL (full-length C-Raf protein, Y340E and Y341E activating mutations) (Homo sapiens (Human), UniProt P04049, Y340E/Y341E)
Format: biochemical
Settings: AlphaScreen, 60 min pre-incubation, reaction 1 hour at room temperature; read-out: c-Raf FL IC-50

Row | IC50 | SMILES
1 | 2.49 nM | Cc1ncc(NC(=O)c2cccc(C(F)(F)F)c2)cc1-c1cnc(CC2(O)CCOCC2)c(N2CCOCC2)c1 [Example 993, N-(6′-((4-hydroxytetrahydro-2H-pyran-4-yl)methyl)-2-methyl-5′-morpholino-[3,3′-bipyridin]-5-yl)-3-(trifluoromethyl)benzamide]
2 | 0.66 nM | Cc1ncc(NC(=O)c2cccc(C(F)(F)F)c2)cc1-c1cnc(C=C2CCOCC2)c(N2CCOCC2)c1 [Example 994, N-(6′-((dihydro-2H-pyran-4(3H)-ylidene)methyl)-2-methyl-5′-morpholino-[3,3′-bipyridin]-5-yl)-3-(trifluoromethyl)benzamide]
3 | 0.44 nM | Cc1ccc(NC(=O)c2ccnc(C(C)(C)F)c2)cc1-c1cnc(OCCO)c(N2CCOCC2)c1 [Example 997, 2-(2-fluoropropan-2-yl)-N-(3-(6-(2-hydroxyethoxy)-5-morpholinopyridin-3-yl)-4-methylphenyl)isonicotinamide]
4 | 0.7 nM | Cc1ccc(NC(=O)c2ccnc(C(C)(C)C#N)c2)cc1-c1cnc(OCCO)c(N2CCOCC2)c1 [Example 998, 2-(2-cyanopropan-2-yl)-N-(3-(6-(2-hydroxyethoxy)-5-morpholinopyridin-3-yl)-4-methylphenyl)isonicotinamide]
5 | 0.19 nM | Cc1ccc(NC(=O)c2ccnc(C3CC3)c2)cc1-c1cnc(OCCO)c(N2CCOCC2)c1 [Example 999, 2-cyclopropyl-N-(3-(6-(2-hydroxyethoxy)-5-morpholinopyridin-3-yl)-4-methylphenyl)isonicotinamide]
6 | 0.51 nM | Cc1ccc(NC(=O)c2ccnc(C(C)(F)F)c2)cc1-c1cnc(OCCO)c(N2CCOCC2)c1 [Example 1000, 2-(1,1-difluoroethyl)-N-(3-(6-(2-hydroxyethoxy)-5-morpholinopyridin-3-yl)-4-methylphenyl)isonicotinamide]
7 | 0.31 nM | Cc1ccc(NC(=O)c2cncc(C(F)(F)F)c2)cc1-c1cnc(OCCO)c(N2CCOCC2)c1 [Example 1001, N-(3-(6-(2-hydroxyethoxy)-5-morpholinopyridin-3-yl)-4-methylphenyl)-5-(trifluoromethyl)nicotinamide]
8 | 0.41 nM | Cc1ccc(NC(=O)c2ccnc(C(F)(F)F)c2)cc1-c1cnc(OCCO)c(N2CCOCC2)c1 [Example 1002, N-(3-(6-(2-hydroxyethoxy)-5-morpholinopyridin-3-yl)-4-methylphenyl)-2-(trifluoromethyl)isonicotinamide]
9 | 14 nM | Cc1ncc(NC(=O)c2cnnc(C(F)(F)F)c2)cc1-c1cc(NCCO)nc(N2CCOCC2)c1F [Example 1004, N-(3′-fluoro-6′-((2-hydroxyethyl)amino)-2-methyl-2′-morpholino-[3,4′-bipyridin]-5-yl)-6-(trifluoromethyl)pyridazine-4-carboxamide]
10 | 1.14 nM | Cc1ccc(NC(=O)c2ccnc(C(F)(F)F)c2)cc1-c1cc(N2CCOCC2)nc(NCCO)c1F [Example 1006, N-(3-(3-fluoro-2-((2-hydroxyethyl)amino)-6-morpholinopyridin-4-yl)-4-methylphenyl)-2-(trifluoromethyl)isonicotinamide]
11 | 1.14 nM | Cc1ccc(NC(=O)c2cnnc(C(F)(F)F)c2)cc1-c1cc(N2CCOCC2)nc(NCCO)c1F [Example 1007, N-(3-(3-fluoro-2-((2-hydroxyethyl)amino)-6-morpholinopyridin-4-yl)-4-methylphenyl)-6-(trifluoromethyl)pyridazine-4-carboxamide]
12 | 2.77 nM | Cc1ccc(NC(=O)c2ccnc(C(F)(F)F)c2)cc1-c1cc(NCCO)nc(N2CCOCC2)c1F [Example 1008, N-(3-(3-fluoro-6-((2-hydroxyethyl)amino)-2-morpholinopyridin-4-yl)-4-methylphenyl)-2-(trifluoromethyl)isonicotinamide]
13 | 2.63 nM | Cc1ccc(NC(=O)c2ccnc(C(F)F)c2)cc1-c1cc(NCCO)nc(N2CCOCC2)c1F [Example 1009, 2-(difluoromethyl)-N-(3-(3-fluoro-6-((2-hydroxyethyl)amino)-2-morpholinopyridin-4-yl)-4-methylphenyl)isonicotinamide]
14 | 4.47 nM | Cc1ccc(NC(=O)c2ccnc(C(C)(C)O)c2)cc1-c1cc(NCCO)nc(N2CCOCC2)c1F [Example 1010, N-(3-(3-fluoro-6-((2-hydroxyethyl)amino)-2-morpholinopyridin-4-yl)-4-methylphenyl)-2-(2-hydroxypropan-2-yl)isonicotinamide]
15 | 3.81 nM | Cc1ccc(NC(=O)c2ccnc(C3(C#N)CC3)c2)cc1-c1cc(NCCO)nc(N2CCOCC2)c1F [Example 1011, 2-(1-cyanocyclopropyl)-N-(3-(3-fluoro-6-((2-hydroxyethyl)amino)-2-morpholinopyridin-4-yl)-4-methylphenyl)isonicotinamide]
16 | 18.7 nM | Cc1ccc(NC(=O)c2cnnc(C(C)(C)C#N)c2)cc1-c1cc(NCCO)nc(N2CCOCC2)c1F [Example 1012, 6-(2-cyanopropan-2-yl)-N-(3-(3-fluoro-6-((2-hydroxyethyl)amino)-2-morpholinopyridin-4-yl)-4-methylphenyl)pyridazine-4-carboxamide]

Row | IC50 | SMILES
17 | 1.99 nM | Cc1ccc(NC(=O)c2cnnc(C(F)(F)F)c2)cc1-c1cc(NCCO)nc(N2CCOCC2)c1F [Example 1013, N-(3-(3-fluoro-6-((2-hydroxyethyl)amino)-2-morpholinopyridin-4-yl)-4-methylphenyl)-6-(trifluoromethyl)pyridazine-4-carboxamide]
18 | 2.43 nM | Cc1ccc(NC(=O)c2ccnc(C(F)(F)F)c2)cc1-c1c(F)c(NCCO)nc(N2CCOCC2)c1F [Example 1014, N-(3-(3,5-difluoro-2-((2-hydroxyethyl)amino)-6-morpholinopyridin-4-yl)-4-methylphenyl)-2-(trifluoromethyl)isonicotinamide]
19 | 4.97 nM | Cc1ccc(NC(=O)c2cnnc(C(F)(F)F)c2)cc1-c1c(F)c(NCCO)nc(N2CCOCC2)c1F [Example 1015, N-(3-(3,5-difluoro-2-((2-hydroxyethyl)amino)-6-morpholinopyridin-4-yl)-4-methylphenyl)-6-(trifluoromethyl)pyridazine-4-carboxamide]
20 | 0.7 nM | Cc1ccc(NC(=O)c2ccnc(C(F)F)c2)cc1-c1cc(N2CCOCC2)nc(NCCO)c1F [Example 1016, 2-(difluoromethyl)-N-(3-(3-fluoro-2-((2-hydroxyethyl)amino)-6-morpholinopyridin-4-yl)-4-methylphenyl)isonicotinamide]
21 | 0.35 nM | COc1nnc(-c2cc(C(=O)Nc3ccnc(C(F)(F)F)c3)ccc2C)cc1N1CCOCC1 [Example 1017, 3-(6-methoxy-5-morpholinopyridazin-3-yl)-4-methyl-N-(2-(trifluoromethyl)pyridin-4-yl)benzamide]
22 | 0.57 nM | COc1nnc(-c2cc(C(=O)Nc3ccnc(C(F)(F)F)c3)ccc2C)cc1N1CCOCC1 [Example 1018]
23 | 0.38 nM | COc1nnc(-c2cc(C(=O)Nc3ccnc(C(C)(F)F)c3)ccc2C)cc1N1CCOCC1 [Example 1019, N-(2-(1,1-difluoroethyl)pyridin-4-yl)-3-(6-methoxy-5-morpholinopyridazin-3-yl)-4-methylbenzamide]
24 | 2.2 nM | CCOc1nnc(-c2cc(C(=O)Nc3ccnc(C(C)(F)F)c3)ccc2C)cc1N1CCOCC1 [Example 1020, N-(2-(1,1-difluoroethyl)pyridin-4-yl)-3-(6-ethoxy-5-morpholinopyridazin-3-yl)-4-methylbenzamide]
25 | 1.04 nM | Cc1ccc(NC(=O)c2ccnc(C(C)(F)F)c2)cc1-c1cc(NC[C@@H](C)O)nc(N2CCOCC2)n1 [Example 1024]
26 | 1.97 nM | Cc1ccc(NC(=O)c2ccnc(C(C)(C)F)c2)cc1-c1cc(NC[C@@H](C)O)nc(N2CCOCC2)n1 [Example 1025, (R)-2-(2-fluoropropan-2-yl)-N-(3-(6-((2-hydroxypropyl)amino)-2-morpholinopyrimidin-4-yl)-4-methylphenyl)isonicotinamide]
27 | 2.9 nM | Cc1ccc(NC(=O)c2ccnc(C(C)(C)C#N)c2)cc1-c1cc(NC[C@@H](C)O)nc(N2CCOCC2)n1 [Example 1026, (R)-2-(2-cyanopropan-2-yl)-N-(3-(6-((2-hydroxypropyl)amino)-2-morpholinopyrimidin-4-yl)-4-methylphenyl)isonicotinamide]
28 | 1.79 nM | CCOc1ccc(-c2cc(NC(=O)c3ccnc(C(C)(C)F)c3)cnc2C)nc1N1CCOCC1 [Example 1027, N-(5-ethoxy-2′-methyl-6-morpholino-[2,3′-bipyridin]-5′-yl)-2-(2-fluoropropan-2-yl)isonicotinamide]
29 | 1.6 nM | CCOc1ccc(-c2cc(NC(=O)c3ccnc(C(C)(F)F)c3)cnc2C)nc1N1CCOCC1 [Example 1028, 2-(1,1-difluoroethyl)-N-(5-ethoxy-2′-methyl-6-morpholino-[2,3′-bipyridin]-5′-yl)isonicotinamide]
30 | 0.59 nM | Cc1ncc(NC(=O)c2cccc(C(F)(F)F)c2)cc1-c1cnc(OCCOCCO)c(N2CCOCC2)c1 [Example 1033, N-(6′-(2-(2-hydroxyethoxy)ethoxy)-2-methyl-5′-morpholino-[3,3-bipyridin]-5-yl)-3-(trifluoromethyl)benzamide]
31 | 0.46 nM | Cc1ncc(NC(=O)c2cccc(C(F)(F)F)c2)cc1-c1cnc(OC2CCS(=O)(=O)CC2)c(N2CCOCC2)c1 [Example 1034, N-(6′-((1,1-dioxidotetrahydro-2H-thiopyran-4-yl)oxy)-2-methyl-5′-morpholino-[3,3′-bipyridin]-5-yl)-3-(trifluoromethyl)benzamide]

Row | SMILES | IC50
32 | Cc1ncc(NC(=O)c2cccc(C(F)(F)F)c2)cc1-c1cnc(O[C@H](C)CO)c(N2CCOCC2)c1 [Example 1021, (R)—N-(6′-((1-hydroxypropan-2-yl)oxy)-2-methyl-5′-morpholino-[3,3′-bipyridin]-5-yl)-3-(trifluoromethyl)benzamide] | 0.69 nM
33 | Cc1ncc(NC(=O)c2cccc(C(F)(F)F)c2)cc1-c1cnc(OC[C@H](C)O)c(N2CCOCC2)c1 [Example 1022, (S)—N-(6′-(2-hydroxypropoxy)-2-methyl-5′-morpholino-[3,3′-bipyridin]-5-yl)-3-(trifluoromethyl)benzamide] | 0.37 nM
